# Laboratory results published in patent publication US10961222B2, “Chemical compound of isocitrate dehydrogenase inhibitor, and application thereof” (NANJING SANHOME PHARMACEUTICAL CO., LTD., priority 2016, dated 2021).
# Test system: U87-MG (IDH2-R140Q) subcutaneous xenograft tumor
# Experiment: Subcutaneous xenograft tumor caused by U87-MG (IDH2-R140Q) mutant cells in vivo: intratumor 2-HG
# Set-up: species or system BALB/c nude mice
# Details: 6.25 mg/kg, intragastric, mean, relative to U87-MG (IDH2-R140Q) control group
# Description: 1.2 Animals: BALB/c nude mice, 6-7 weeks old, female, 18-22 g, purchased from Nanjing Jinlaichang Company.
# U87-MG (IDH2-R140Q) cells and U87-MG cells (wild type) were expanded, and cells in logarithmic growth phase were used for tumor inoculation in vivo. 16 mice were inoculated subcutaneously into the right lower back of the body at an amount of 2×10^6 cells/mouse (the volume ratio of cell suspension to Matrigel was 1:0.8).
# The non-mutation control group was nude mice inoculated with U87-MG cells, and the test compound groups and vehicle control group were nude mice inoculated with U87-MG (IDH2-R140Q) cells.
# Each group was intragastrically administered with a corresponding concentration of the compound solution, the administration volume was 100 μL/10 g body weight, and the control group was administered the same volume of blank vehicle.
# After 10 days of administration, the mice were sacrificed. The tumors were exfoliated, homogenized, and the 2-HG content in the tumor was examined.
# The 2-HG concentration in the homogenate of each animal tumor in each group was determined by LC-MS/MS. The percentage (2-HG %) was calculated; the calculation formula is as follows 2-HG %=(2-HG concentration of administration group tumor−2-HG concentration of U87-MG control group tumor)/(2-HG concentration of U87−MG(IDH2-R140Q) control group tumor−2-HG concentration of U87-MG control group tumor)×100%.
smiles,measurement,value
"O[C@@]1(C(F)(F)F)CCN(c2nc(Nc3ccnc(C(F)(F)F)c3)nc(-c3cccc(C(F)(F)F)n3)n2)C1 [Example 22B, (S)-4-(3-trifluoromethyl-3-hydroxypyrrolidin-1-yl)-6-(6-(trifluoromethyl)pyridin-2-yl)-N-(2-(trifluoromethyl)pyridin-4-yl)-1,3,5-triazin-2-amine]",Intratumor 2-HG(%) after 10 days of administration,−2%
"O[C@]1(C(F)(F)F)CCN(c2nc(Nc3ccnc(C(F)(F)F)c3)nc(-c3cccc(C(F)(F)F)n3)n2)C1 [Example 22A, (R)-4-(3-trifluoromethyl-3-hydroxypyrrolidin-1-yl)-6-(6-(trifluoromethyl)pyridin-2-yl)-N-(2-(trifluoromethyl)pyridin-4-yl)-1,3,5-triazin-2-amine]",Intratumor 2-HG(%) after 10 days of administration,31%
